The target in the experiment is Furin (Homo sapiens) (UniProt P09958). As to the kind of experiment: human furin inhibitors, primary screen, biochemical, fluorescence intensity (AID 463115). The settings on record: purified furin, fluorogenic substrate cleavage, hits give high values.

Protein sequences, listed by entry. Tags and fused reporters are not part of them.
UniProt P09958, whole entry, looked up: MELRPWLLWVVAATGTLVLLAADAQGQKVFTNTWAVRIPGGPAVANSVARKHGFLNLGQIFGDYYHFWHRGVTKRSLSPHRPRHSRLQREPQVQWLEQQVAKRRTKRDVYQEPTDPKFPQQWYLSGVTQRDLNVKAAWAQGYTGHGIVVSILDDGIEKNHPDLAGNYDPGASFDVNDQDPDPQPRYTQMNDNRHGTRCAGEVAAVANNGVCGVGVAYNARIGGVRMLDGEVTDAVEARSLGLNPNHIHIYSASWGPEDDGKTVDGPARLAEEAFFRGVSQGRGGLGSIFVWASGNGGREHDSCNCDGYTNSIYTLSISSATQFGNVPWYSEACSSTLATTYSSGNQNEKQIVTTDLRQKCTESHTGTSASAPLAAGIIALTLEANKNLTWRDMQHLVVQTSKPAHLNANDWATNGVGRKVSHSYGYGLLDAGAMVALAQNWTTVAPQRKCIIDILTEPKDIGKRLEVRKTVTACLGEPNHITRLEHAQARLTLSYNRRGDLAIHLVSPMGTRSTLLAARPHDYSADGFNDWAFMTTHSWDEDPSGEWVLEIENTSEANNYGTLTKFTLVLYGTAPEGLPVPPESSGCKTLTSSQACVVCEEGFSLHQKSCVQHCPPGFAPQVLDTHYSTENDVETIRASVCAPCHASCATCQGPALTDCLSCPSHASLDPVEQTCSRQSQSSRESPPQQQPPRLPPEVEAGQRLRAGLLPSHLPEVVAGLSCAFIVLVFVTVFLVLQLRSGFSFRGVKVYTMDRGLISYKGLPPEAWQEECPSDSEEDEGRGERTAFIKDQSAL

Our source for the inhibition values is PubChem BioAssay AID463115 (University of Pittsburgh Molecular Library Screening Center, 2010).

Only a part is listed here, and it is no random draw. Calls of active or inactive are those of the source. Cut-off read from the data, not from the text of the source: active = inhibition above about 25%; inactive = the rest.

One may read the inhibition as the drop in the measured response relative to a control, in per cent.

On to `O=[N+]([O-])c1ncn(CCn2ncnc2[N+](=O)[O-])n1`, for which the inhibition (at 30 µM unless noted) is inactive: -30.6%. Take `CC(C)(C)C(=O)NC(Sc1ccncn1)C(Cl)(Cl)Cl` (stereo unspecified): the inhibition (at 30 µM unless noted) is inactive: -16.8%. `O=C(O)CNc1ccc([As](=O)(O)O)cc1`: the inhibition (at 30 µM unless noted) was inactive: -19.8%. For `O=[N+]([O-])c1cccc(NC2=NCC(CBr)S2)c1` (stereo unspecified), the inhibition (at 30 µM unless noted) was inactive: -4.69%. The same measure, in the same setting: as for `O=C(Nc1cc([As](=O)(O)O)ccc1O)c1ccccc1`, the figure is inactive: -14.6%. The same measure, in the same setting: as for `CCN(/C(=N/P(=O)(N1CCOCC1)N1CCOCC1)N1CCOCC1)c1ccc(OC)cc1`, the figure is inactive: -26.1%; as for `C[N+]1=C2C=CC=CC=C2SC12C([N+](=O)[O-])=CC([N+](=O)[O-])=C[C-]2[N+](=O)[O-]` (stereo unspecified), inactive: -16.7%; as for `Nc1ccc([As](=O)(O)c2ccc(N)cc2)cc1`, inactive: -13.3%.

As to `CC1CCN(C(=O)Oc2c(Cl)cc(Cl)c3cccnc23)CC1`, where the note is “at 30 µM unless noted”, the inhibition was inactive: 0.208% [at 20 µM]. `CN(C)C(=O)OCCc1n(C)cc[n+]1C`: where the note is “at 30 µM unless noted”, the inhibition is inactive: -19.9%. In the case of `CC(C)=N/N=C(\N)N[N+](=O)[O-]`, the inhibition (at 30 µM unless noted) is inactive: -29.9%. As to `COc1ccc(C2=NCC(CBr)S2)cc1` (stereo unspecified), the inhibition (at 30 µM unless noted) is inactive: -20.6%. Still for that read-out and setting: as for `O=[N+]([O-])c1cc([N+](=O)[O-])c(CCNc2ccccc2)c([N+](=O)[O-])c1`, the figure is inactive: -18.2%. On the same count and under the same terms, as for `CCc1nc2c(n1)c1c(non1O)c1c2no[n+]1[O-]`, the figure is inactive: -10.3%. Same read-out and setting: as for `Cc1ccc(NP(=O)(Oc2ccccc2)Oc2ccccc2)nc1`, the figure is inactive: -11.3%; as for `CC(=O)N1C2C3N(C(C)=O)C1C1N(C(C)=O)C(C(N1C(C)=O)N3C(C)=O)N2C(C)=O`, inactive: -21% [at 20 µM]; as for `O=[N+]([O-])c1cccc2n[nH]nc12`, inactive: 0.2% [at 20 µM].

In the case of `Cc1c2non([O-])c-2c(C)[n+](=O)[n+]1[O-]`, the inhibition (at 30 µM unless noted) is inactive: -15.6%.

For `O=C(NC(Sc1ccncn1)C(Cl)(Cl)Cl)c1ccccc1` (stereo unspecified), for the setting “at 30 µM unless noted”, the inhibition is inactive: -6.83%. Turning to `Oc1ccccc1CNc1ccccn1`, the inhibition (at 30 µM unless noted) is inactive: -14.3% [at 20 µM]. Same read-out and setting: as for `CC(C)CC(=O)NC(Sc1ccc(Cl)cc1)C(Cl)(Cl)Cl` (stereo unspecified), the figure is inactive: -17.5% [at 20 µM]. On the same count and under the same terms, as for `Nc1cc(N)c2nonc2c1[N+](=O)[O-]`, the figure is inactive: -3.76%; as for `Cc1ccc(N/C(=N/P(=O)(N2CCOCC2)N2CCOCC2)N2CCOCC2)cc1`, inactive: -15%; as for `NC(=O)c1cc([N+](=O)[O-])cc([N+](=O)[O-])c1N`, inactive: -5.71%. Regarding `Clc1ccc(Cl)c(NC2=NCC(CBr)S2)c1` (stereo unspecified), the inhibition (at 30 µM unless noted) is inactive: -29.9%.

In the case of `CN1CCCC(OC(=O)C(c2ccccc2)c2ccccc2)C1` (stereo unspecified), the inhibition (at 30 µM unless noted) is inactive: -26.9% [at 20 µM]. On the same count and under the same terms, the figure for `Cc1ccc(OP(=O)(Nc2nccs2)Oc2ccc(C)cc2)cc1` is inactive: -28.5%; for `COc1ccccc1OP(=O)(Nc1ccc(C)cn1)Oc1ccccc1OC` it is inactive: -24.9%. Still for that read-out and setting: as for `Nc1cccc2ccc([As](=O)(O)O)cc12`, the figure is inactive: -27.3%; as for `CCN(N=Nc1nonc1N)c1nonc1N`, inactive: -22.1%. For `O=P(Nc1nc2ccc(Cl)cc2s1)(c1ccccc1)c1ccccc1`, where the note is “at 30 µM unless noted”, the inhibition is inactive: -32.3%. On the same count and under the same terms, the figure for `O=C(O)c1ccccc1[As](=O)(O)O` is inactive: -6.7%; for `CC(=O)Nc1ccc([As](=O)(O)O)cc1` it is inactive: -29.6%; for `Cc1ccc(NP(=O)(Oc2ccccc2F)Oc2ccccc2F)nc1` it is inactive: 2.51%. With `CCOP(=O)(Nc1ccccc1)OCC`, the inhibition by setting is: (at 20 µM) inactive: -14%; (at 30 µM) inactive: -15.3%. Consider `Cc1cc(SC(NC(=O)c2ccc(F)cc2)C(Cl)(Cl)Cl)ncn1` (stereo unspecified), for which the inhibition (at 30 µM unless noted) is inactive: -17.8%. Turning to `CCC(=O)N1C2C3N(C(=O)CC)C1C1N(C(=O)CC)C(C(N1C(=O)CC)N3C(=O)CC)N2C(=O)CC`, the inhibition (at 30 µM unless noted) is inactive: -16% [at 20 µM]. On to `CC(=O)NC(SC(=S)N(CC(C)C)CC(C)C)C(Cl)(Cl)Cl` (stereo unspecified), for which the inhibition (at 30 µM unless noted) is inactive: -4.85%. Consider `Cc1ccc(OP(=O)(Nc2ccccn2)Oc2ccc(C)cc2)cc1`, for which the inhibition (at 30 µM unless noted) is inactive: -16.5%.

`COC(=O)c1cc2c(s1)N=C(c1ccccc1)N(C)P2(=O)N1CCOCC1` (stereo unspecified): the inhibition (at 30 µM unless noted) was inactive: 1.02%.

Consider `CN(C)C(=O)Oc1noc2ccccc12`, for which the inhibition (at 30 µM unless noted) was inactive: -22.9%. On to `O=c1c2cc([N+](=O)[O-])ccc2[nH]c2c([N+](=O)[O-])cc([N+](=O)[O-])cc12`, for which, where the note is “at 30 µM unless noted”, the inhibition was inactive: -30%. `Cc1ccccc1OP(=O)(Nc1ccccn1)Oc1ccccc1C`: the inhibition (at 30 µM unless noted) was inactive: -23.8%. Same read-out and setting: the figure for `Cc1ccc(NP(=O)(Oc2cccc(C)c2)Oc2cccc(C)c2)nc1` is inactive: -10.2%; for `CCOC(=O)NC(Sc1ccccc1)C(Cl)(Cl)Cl` (stereo unspecified) it is inactive: -8.09% [at 20 µM]. Same read-out and setting: the figure for `c1ccc(-c2nn[nH]n2)c(-c2nn[nH]n2)c1` is inactive: -27.5%. With `O=C(NC1CCS(=O)(=O)C1)NP(=S)(Oc1ccccc1)Oc1ccccc1` (stereo unspecified), the inhibition (at 30 µM unless noted) was inactive: -21.4%. Consider `CCNC(=S)/N=C(\N)N[N+](=O)[O-]`, for which the inhibition (at 30 µM unless noted) was inactive: -20.5%. The same measure, in the same setting: the figure for `C[C@@H]1C=CCP(=O)(Oc2ccccc2)O1` (stereo partly specified) is inactive: -30.4%. On the same count and under the same terms, as for `C[C@H]1OP(=O)(Oc2ccccc2)C[C@@H]2O[C@@H]21` (stereo partly specified), the figure is inactive: -22.6%.

As to `CC(=O)Nc1ccc(Oc2c([N+](=O)[O-])cc([N+](=O)[O-])cc2[N+](=O)[O-])cc1`, the inhibition (at 30 µM unless noted) was inactive: -5.35%. Still for that read-out and setting: as for `CC(=O)Nc1ccc([As](=O)(O)O)c(O)c1`, the figure is inactive: -10.1%; as for `CCOc1ccc(C2=NCC(CBr)S2)cc1` (stereo unspecified), inactive: -13.9%. Same read-out and setting: the figure for `O=P1(Nc2nc3ccc(Cl)cc3s2)COc2ccccc2O1` (stereo unspecified) is inactive: -19.8%. In the case of `CC(C)(C)C(=O)NC(Sc1ccccc1)C(Cl)(Cl)Cl` (stereo unspecified), under “at 30 µM unless noted”, the inhibition is inactive: -11%. Still for that read-out and setting: as for `O=P(Nc1nccs1)(c1ccccc1)c1ccccc1`, the figure is inactive: -10.7% [at 20 µM]; as for `CC(C)C(=O)NC(Sc1ccccc1)C(Cl)(Cl)Cl` (stereo unspecified), inactive: -31.7%; as for `c1nnnn1CCn1cnnn1`, inactive: -25.3%. On the same count and under the same terms, as for `O=[As](O)(c1ccccc1)c1ccc(O)cc1`, the figure is inactive: -21.7%.

Take `CC(=O)NC(SC(=S)N(C)C)C(Cl)(Cl)Cl` (stereo unspecified): the inhibition (at 30 µM unless noted) was inactive: -30.6%. Same read-out and setting: the figure for `O=[N+]([O-])c1ncn(CCn2cnc([N+](=O)[O-])n2)n1` is inactive: -16.5%. Same read-out and setting: as for `O=C(OC1CN2CCC1CC2)c1cccc(Cl)c1` (stereo unspecified), the figure is inactive: -10.6%. For the molecule `Nc1ccc([As](=O)(O)c2ccc([N+](=O)[O-])cc2)cc1`, where the note is “at 30 µM unless noted”, the inhibition was inactive: -12.1%. Same read-out and setting: as for `C(Cc1nn[nH]n1)Cc1nn[nH]n1`, the figure is inactive: -23.6%; as for `O=P(Nc1ccccn1)(c1ccc(Br)cc1)c1ccc(Br)cc1`, inactive: -25.4%. For `C[C@H]1OP(=O)(Oc2ccccc2)[C@H](O)[C@H](O)[C@H]1N=[N+]=[N-]` (stereo partly specified), the inhibition (at 30 µM unless noted) was inactive: -23.3%. As for `O=P(Nc1nc2ccccc2s1)(c1ccccc1)c1ccccc1`, under “at 30 µM unless noted”, the inhibition is inactive: -13.3%. In the case of `O=P1(Nc2ncccn2)COc2ccccc2OC1`, the inhibition (at 30 µM unless noted) is inactive: -21.5%. The same measure, in the same setting: as for `Nc1cccc([As](=O)(O)c2ccccc2)c1`, the figure is inactive: -25.8%; as for `O=P1(Nc2ccc(Br)cn2)COc2ccccc2OC1`, inactive: -25.7%; as for `Cc1ccc(OCC(=O)OC2CN3CCC2CC3)cc1` (stereo unspecified), inactive: -13.1% [at 20 µM]. Still for that read-out and setting: the figure for `O=[As](O)(c1cccs1)c1cccs1` is inactive: -28.4%; for `CC1CCC(C(C)C)C(OP(=O)(Nc2ccccn2)c2ccccc2)C1` (stereo unspecified) it is inactive: -23.5%; for `Cc1nn(-c2ccccc2)c2c1P(=O)(N1CCOCC1)N(C)C(c1ccccc1)=N2` (stereo unspecified) it is inactive: -19.5% [at 20 µM].

As to `CN(C)C1(CNC(=O)c2ccc(S(C)(=O)=O)cc2)CCCCC1`, the inhibition (at 30 µM unless noted) is inactive: -25%.

Turning to `O=C(/C=C/c1ccccc1)OC1CN2CCC1CC2` (stereo unspecified), under “at 30 µM unless noted”, the inhibition was inactive: -13.7%. Regarding `CC(C)/C=N\N=C(\N)N[N+](=O)[O-]`, the inhibition (at 30 µM unless noted) was inactive: -21.5%. For `CC1(CBr)Cn2c(nc3ccccc3c2=O)S1` (stereo unspecified), for the setting “at 30 µM unless noted”, the inhibition was inactive: -13.4% [at 20 µM]. Still for that read-out and setting: as for `O=[As](O)(c1ccccc1Br)c1ccccc1Br`, the figure is inactive: -14.4%; as for `O=P1(Nc2ccccn2)COc2ccccc2OC1`, inactive: -17%; as for `CCOP(=O)(Nc1ccc(C)cn1)OCC`, inactive: -27.4%. On the same count and under the same terms, as for `CC(C)(C)C(=O)NC(Sc1ncccn1)C(Cl)(Cl)Cl` (stereo unspecified), the figure is inactive: -14.6%; as for `Clc1n[nH]nc1-c1nn[nH][15n]1`, inactive: -18.3%; as for `Cc1ccc(NCCc2c([N+](=O)[O-])cc([N+](=O)[O-])cc2[N+](=O)[O-])cc1`, inactive: -17.2%. As for `Nc1cccc2c([As](=O)(O)O)cccc12`, the inhibition (at 30 µM unless noted) was inactive: -24.8%. Same read-out and setting: as for `CCCOP(=S)(Nc1nc(N)cc(=O)[nH]1)OCCC`, the figure is inactive: -12.6%. Still for that read-out and setting: the figure for `CCOP(=O)(Nc1cccc2ccccc12)OCC` is inactive: -3.31%; for `COc1cc(C2NCCC3(OCCO3)C2(C)C)cc(OC)c1OC` (stereo unspecified) it is inactive: 7.54%; for `O=C(OC1CN2CCC1CC2)c1ccc(Cl)cc1` (stereo unspecified) it is inactive: -9.76%. On to `COc1cc(C(=O)NCC2(N3CCOCC3)CCCCC2)cc(Cl)c1OC(C)C`, for which the inhibition (at 30 µM unless noted) was inactive: -34.3%. On the same count and under the same terms, as for `O=[As](O)(O)c1cccnc1`, the figure is inactive: -20%. The same measure, in the same setting: as for `O=[As](O)(c1cccc(O)c1)c1cccc(O)c1`, the figure is inactive: -10.2%; as for `Cc1cccc(OCC(=O)OC2CN3CCC2CC3)c1` (stereo unspecified), inactive: -10.6% [at 20 µM]; as for `NC(=O)Nc1ccc([As](=O)(O)O)cc1`, inactive: -33.8%.

For `CCOP1(=S)c2c(C)nn(CCC#N)c2N=C(c2ccc(F)cc2)N1C` (stereo unspecified), for the setting “at 30 µM unless noted”, the inhibition was inactive: -20.3%. Turning to `CN(C(=O)Cc1ccccc1)[C@@H]1CC[C@]2(CCCO2)C[C@H]1N1CCCC1`, the inhibition (at 30 µM unless noted) was inactive: -27.2%.

For `O=[N+]([O-])c1ccc2c(c1)nnn2O`, the inhibition (at 30 µM unless noted) was inactive: -7.05% [at 20 µM]. `O=P(Nc1nccs1)(c1ccccc1)c1nc2ccccc2s1` (stereo unspecified): where the note is “at 30 µM unless noted”, the inhibition was inactive: -20.6%. `O=P(Nc1nccs1)(Oc1ccccc1)Oc1ccccc1`: for the setting “at 30 µM unless noted”, the inhibition was inactive: -22.6%. Still for that read-out and setting: the figure for `CCOP1(=S)c2c(C)nn(CCC#N)c2N=C(c2ccccc2F)N1C` (stereo unspecified) is inactive: -18.2% [at 20 µM].
